Experimental data as given in patent publication US12686673B2 (Blueprint Medicines Corporation, priority 2020, dated 2026).

Amino acid sequences for entries named in this document (tags omitted). Chains listed by the source or under a name are the forms on record and can include a tag or linker.
UniProt P00533, with tags, fused parts or gaps DUP767-769: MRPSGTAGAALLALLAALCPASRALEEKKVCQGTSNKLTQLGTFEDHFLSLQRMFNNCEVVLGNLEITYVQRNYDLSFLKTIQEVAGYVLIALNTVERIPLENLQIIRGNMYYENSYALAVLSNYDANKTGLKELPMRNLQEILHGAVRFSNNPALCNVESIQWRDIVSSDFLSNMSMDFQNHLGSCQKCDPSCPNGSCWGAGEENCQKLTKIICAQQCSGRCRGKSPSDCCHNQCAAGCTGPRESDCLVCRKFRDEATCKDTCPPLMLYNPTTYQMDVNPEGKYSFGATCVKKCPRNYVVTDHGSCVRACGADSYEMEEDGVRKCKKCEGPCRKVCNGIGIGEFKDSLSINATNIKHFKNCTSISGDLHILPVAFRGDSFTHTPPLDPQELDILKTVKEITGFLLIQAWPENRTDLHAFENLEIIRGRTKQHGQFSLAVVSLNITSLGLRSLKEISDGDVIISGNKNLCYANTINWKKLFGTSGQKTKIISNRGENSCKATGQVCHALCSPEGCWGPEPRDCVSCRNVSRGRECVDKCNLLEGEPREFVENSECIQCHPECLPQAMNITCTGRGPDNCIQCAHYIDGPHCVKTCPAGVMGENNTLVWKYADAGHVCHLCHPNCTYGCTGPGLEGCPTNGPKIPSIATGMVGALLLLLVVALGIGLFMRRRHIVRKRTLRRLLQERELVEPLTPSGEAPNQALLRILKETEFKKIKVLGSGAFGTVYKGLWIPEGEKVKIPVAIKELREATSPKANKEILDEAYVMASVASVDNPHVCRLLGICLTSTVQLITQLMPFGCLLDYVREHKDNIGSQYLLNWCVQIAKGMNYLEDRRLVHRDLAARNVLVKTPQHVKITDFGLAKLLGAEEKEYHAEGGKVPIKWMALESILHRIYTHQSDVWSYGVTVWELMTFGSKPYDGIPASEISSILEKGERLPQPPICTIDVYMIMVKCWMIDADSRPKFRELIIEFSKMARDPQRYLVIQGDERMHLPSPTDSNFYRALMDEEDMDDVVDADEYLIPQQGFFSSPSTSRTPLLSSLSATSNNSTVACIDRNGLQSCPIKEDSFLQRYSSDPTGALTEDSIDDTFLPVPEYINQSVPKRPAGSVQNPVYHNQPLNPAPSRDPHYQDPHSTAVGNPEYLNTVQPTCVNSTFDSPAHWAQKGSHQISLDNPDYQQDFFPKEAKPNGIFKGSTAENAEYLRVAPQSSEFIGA
UniProt P00533, with tags, fused parts or gaps DUP768-770: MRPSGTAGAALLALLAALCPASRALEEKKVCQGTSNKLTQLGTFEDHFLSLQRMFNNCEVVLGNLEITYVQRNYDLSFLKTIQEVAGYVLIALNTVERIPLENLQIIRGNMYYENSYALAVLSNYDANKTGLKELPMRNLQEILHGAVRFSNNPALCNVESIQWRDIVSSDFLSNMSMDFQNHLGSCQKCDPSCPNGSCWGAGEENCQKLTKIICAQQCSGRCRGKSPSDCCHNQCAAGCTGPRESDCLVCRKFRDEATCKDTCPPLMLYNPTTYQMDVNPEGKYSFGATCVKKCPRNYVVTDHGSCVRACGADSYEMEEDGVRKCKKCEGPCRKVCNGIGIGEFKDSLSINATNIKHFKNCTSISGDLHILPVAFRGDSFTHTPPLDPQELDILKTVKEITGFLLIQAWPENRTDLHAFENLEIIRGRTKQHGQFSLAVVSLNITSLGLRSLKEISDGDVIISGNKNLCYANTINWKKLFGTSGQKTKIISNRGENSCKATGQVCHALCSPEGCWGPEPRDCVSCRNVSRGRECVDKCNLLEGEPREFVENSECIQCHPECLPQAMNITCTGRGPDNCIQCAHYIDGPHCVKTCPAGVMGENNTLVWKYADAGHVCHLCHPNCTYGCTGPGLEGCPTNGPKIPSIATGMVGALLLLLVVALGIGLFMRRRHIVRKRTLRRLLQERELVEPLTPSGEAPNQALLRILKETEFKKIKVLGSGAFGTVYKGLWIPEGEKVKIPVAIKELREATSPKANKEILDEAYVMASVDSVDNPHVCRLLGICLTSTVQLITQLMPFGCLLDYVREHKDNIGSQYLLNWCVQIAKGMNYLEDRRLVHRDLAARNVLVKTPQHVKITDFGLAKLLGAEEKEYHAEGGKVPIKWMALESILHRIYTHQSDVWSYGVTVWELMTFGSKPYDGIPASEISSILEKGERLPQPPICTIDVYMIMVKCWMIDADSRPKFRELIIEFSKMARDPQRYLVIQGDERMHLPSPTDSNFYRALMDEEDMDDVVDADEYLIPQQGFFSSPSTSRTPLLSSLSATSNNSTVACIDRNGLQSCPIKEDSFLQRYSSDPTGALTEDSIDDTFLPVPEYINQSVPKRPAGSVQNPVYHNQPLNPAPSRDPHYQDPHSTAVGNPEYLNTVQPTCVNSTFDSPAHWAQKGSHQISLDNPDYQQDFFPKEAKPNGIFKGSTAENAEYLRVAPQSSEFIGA
UniProt P00533, with tags, fused parts or gaps DUP771-773: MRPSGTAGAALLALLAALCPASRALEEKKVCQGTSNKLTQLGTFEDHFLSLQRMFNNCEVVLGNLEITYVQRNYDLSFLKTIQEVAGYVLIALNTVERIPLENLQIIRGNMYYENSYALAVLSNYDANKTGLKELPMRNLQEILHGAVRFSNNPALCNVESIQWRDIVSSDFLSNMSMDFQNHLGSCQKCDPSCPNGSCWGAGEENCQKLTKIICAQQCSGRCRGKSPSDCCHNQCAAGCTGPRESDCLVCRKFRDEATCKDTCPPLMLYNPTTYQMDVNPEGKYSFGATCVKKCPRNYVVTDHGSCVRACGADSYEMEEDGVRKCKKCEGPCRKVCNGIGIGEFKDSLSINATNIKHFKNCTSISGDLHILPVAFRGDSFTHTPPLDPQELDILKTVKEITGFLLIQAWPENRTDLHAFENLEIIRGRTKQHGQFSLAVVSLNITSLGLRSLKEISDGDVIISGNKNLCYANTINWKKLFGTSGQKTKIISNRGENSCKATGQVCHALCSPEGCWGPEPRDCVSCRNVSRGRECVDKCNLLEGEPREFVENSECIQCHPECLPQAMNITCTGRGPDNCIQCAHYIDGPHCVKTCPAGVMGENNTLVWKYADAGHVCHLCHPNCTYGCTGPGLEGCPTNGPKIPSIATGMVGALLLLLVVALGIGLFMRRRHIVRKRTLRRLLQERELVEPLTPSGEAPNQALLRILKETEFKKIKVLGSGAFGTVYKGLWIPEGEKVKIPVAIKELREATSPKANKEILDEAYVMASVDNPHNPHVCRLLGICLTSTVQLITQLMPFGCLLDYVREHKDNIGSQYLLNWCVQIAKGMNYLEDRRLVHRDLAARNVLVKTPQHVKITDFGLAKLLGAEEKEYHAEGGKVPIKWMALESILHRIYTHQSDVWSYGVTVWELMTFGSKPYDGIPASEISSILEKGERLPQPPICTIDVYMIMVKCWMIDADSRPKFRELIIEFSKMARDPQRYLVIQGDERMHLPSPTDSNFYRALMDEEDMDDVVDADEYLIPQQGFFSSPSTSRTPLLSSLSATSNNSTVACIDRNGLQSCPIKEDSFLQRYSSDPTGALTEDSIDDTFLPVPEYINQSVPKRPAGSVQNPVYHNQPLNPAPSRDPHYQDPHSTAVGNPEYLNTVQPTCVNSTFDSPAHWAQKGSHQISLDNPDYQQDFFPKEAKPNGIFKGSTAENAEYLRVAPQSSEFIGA
UniProt P04626, with tags, fused parts or gaps DUP772-775: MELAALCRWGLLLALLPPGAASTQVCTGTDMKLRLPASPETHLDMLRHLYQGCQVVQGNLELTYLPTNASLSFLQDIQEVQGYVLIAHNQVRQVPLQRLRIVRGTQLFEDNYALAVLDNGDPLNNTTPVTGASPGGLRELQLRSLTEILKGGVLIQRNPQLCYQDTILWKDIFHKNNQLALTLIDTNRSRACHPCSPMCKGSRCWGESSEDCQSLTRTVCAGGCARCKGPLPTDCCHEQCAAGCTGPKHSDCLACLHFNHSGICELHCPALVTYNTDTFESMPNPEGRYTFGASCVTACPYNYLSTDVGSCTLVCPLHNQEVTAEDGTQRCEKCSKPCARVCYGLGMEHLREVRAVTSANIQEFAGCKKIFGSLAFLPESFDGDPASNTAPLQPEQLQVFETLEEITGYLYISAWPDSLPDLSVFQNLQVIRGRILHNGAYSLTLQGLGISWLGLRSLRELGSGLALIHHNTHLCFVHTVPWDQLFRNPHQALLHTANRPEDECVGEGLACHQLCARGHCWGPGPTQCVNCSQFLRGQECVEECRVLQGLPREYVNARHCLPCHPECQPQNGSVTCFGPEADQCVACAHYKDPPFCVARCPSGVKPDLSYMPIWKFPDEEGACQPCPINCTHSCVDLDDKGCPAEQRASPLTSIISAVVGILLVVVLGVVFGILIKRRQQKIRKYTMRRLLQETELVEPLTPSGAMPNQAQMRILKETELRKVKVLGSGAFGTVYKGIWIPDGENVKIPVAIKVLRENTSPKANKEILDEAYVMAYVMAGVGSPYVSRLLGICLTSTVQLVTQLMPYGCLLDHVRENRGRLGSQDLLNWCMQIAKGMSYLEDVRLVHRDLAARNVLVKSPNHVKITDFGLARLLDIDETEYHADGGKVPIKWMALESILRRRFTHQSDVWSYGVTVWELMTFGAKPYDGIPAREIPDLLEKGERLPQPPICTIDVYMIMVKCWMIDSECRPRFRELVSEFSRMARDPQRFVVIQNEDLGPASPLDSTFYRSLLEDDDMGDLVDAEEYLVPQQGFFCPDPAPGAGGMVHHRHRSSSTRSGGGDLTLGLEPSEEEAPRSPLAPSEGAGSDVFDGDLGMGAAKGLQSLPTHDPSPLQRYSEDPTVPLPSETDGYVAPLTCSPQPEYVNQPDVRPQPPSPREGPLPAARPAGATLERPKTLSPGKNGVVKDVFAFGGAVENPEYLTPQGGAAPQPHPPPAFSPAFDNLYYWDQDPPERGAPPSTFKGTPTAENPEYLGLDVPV

What was measured:
Type in all cases: cell-based
[1] = target: EGFR(D770_N771insSVD) expressing Ba/F3 stable cell line (Homo sapiens, UniProt P00533, DUP768-770, cells depend on it); test: Cellular proliferation (Alamar Blue) assay, EGFR D770_N771insSVD Ba/F3; settings: read-out: D770 IC50, 72 hr, tested form: TFA
[2] = target: EGFR (A767_dupASV) expressing Ba/F3 stable cell line (Homo sapiens, UniProt P00533, DUP767-769, cells depend on it); test: Cellular proliferation (Alamar Blue) assay, EGFR A767_dupASV Ba/F3; settings: read-out: A767 IC50, 72 hr, tested form: TFA
A431 cells = test: Cellular proliferation (Alamar Blue) assay, A431; settings: read-out: A431 IC50, 72 hr, tested form: TFA
[3] = target: EGFR (H773insNPH) expressing Ba/F3 stable cell line (Homo sapiens, UniProt P00533, DUP771-773, cells depend on it); test: Cellular proliferation (Alamar Blue) assay, EGFR H773insNPH Ba/F3; settings: read-out: NPH IC50, 72 hr, tested form: TFA
[4] = target: HER2 (A775_G776insYVMA) expressing Ba/F3 stable cell line (Homo sapiens, UniProt P04626, DUP772-775, cells depend on it); test: Cellular proliferation (Alamar Blue) assay, HER2 A775_G776insYVMA Ba/F3; settings: read-out: YVMA IC50, 72 hr, tested form: TFA

With C=CC(=O)Nc1ccc(F)c(Nc2nc(Nc3cnn(CCCN(C)C)c3)ncc2-c2ccc(C(F)(F)F)cc2)c1 as the molecule, how does the GI50 [1] read?
The GI50 was 185 nM.

What about the GI50 [2] of the same molecule?
The GI50 was 335 nM.

What about the IC50 (A431 cells) of the same molecule?
The IC50 was 115 nM.

What about the GI50 [3] of the same molecule?
Its GI50 is 131 nM.

And the GI50 [4]?
The GI50 was 233 nM.
